# Apparent affinities of Ab-14 variants for a coronavirus HR2 peptide

Source: Engelhart et al. 2022 (doi:10.1038/s41597-022-01779-4), MIT Lincoln Laboratory and A-Alpha Bio; data file from the FLAb repository.

All variants were tested on one target, the spike HR2 peptide PDVDLGDISGINAS (SARS-CoV-2).

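The starting antibody came from a phage panning campaign against this peptide. Library AAYL50 holds single substitutions and randomly drawn double and triple substitutions in the CDRs. In AlphaSeq, yeast of one mating type display the scFv and yeast of the other type display the target. The frequency of each diploid, read from paired DNA barcodes, reflects how well the two displayed proteins bind. Read counts were normalised to the haploid input and turned into Kd by a linear fit to BCL2-family pairs of known affinity, for each replicate. The assay was run in three technical replicates.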

Ab-14 is the parent antibody, in scFv form: VH, then the linker GGGGSGGGGSGGGGS, then VL. The heavy chain is unchanged in all variants.
VH: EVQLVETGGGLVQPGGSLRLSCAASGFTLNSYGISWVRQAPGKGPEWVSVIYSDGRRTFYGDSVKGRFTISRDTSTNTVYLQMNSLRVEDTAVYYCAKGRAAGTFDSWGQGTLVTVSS
VL: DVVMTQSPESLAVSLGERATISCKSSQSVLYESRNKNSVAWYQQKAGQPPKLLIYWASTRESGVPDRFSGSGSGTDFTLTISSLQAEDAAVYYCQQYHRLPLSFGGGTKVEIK

Changes read parent residue, position, new residue, counted from the first residue of the VL shown. Affinities are written as log10 Kd with Kd in nM; a lower number is a better binder. Averages over replicates are reported, and they cover detected replicates only. Where no diploid with the target was found in any replicate, the entry reads "nd": below detection, most likely a poor binder, though not proof of it. Background: pairings of library AAYL50 with three empty control strains gave a value in 18% of cases (median 4.19, 5th percentile 2.99). Values in that range, when seen in few replicates, are hard to tell from nonspecific mating. For each scFv, signals with the empty controls are counted beside the result.

For Q27A+Y31W+R99C, the assay gave nd (0 of 3 replicates; controls 1 of 9).
For E61I+H98C+R99S, the assay gave 1.97 (3 of 3 replicates; controls 1 of 9).
For V29M+R60Q+S62A, the assay gave 3.11 (3 of 3 replicates; controls 3 of 9).
For S38M+E61K+H98I, the assay gave nd (0 of 3 replicates; controls 1 of 9).
For V29A+T59L+Y97N, the assay gave nd (0 of 3 replicates; controls 0 of 9).
For R34L+Y97N+L102A, the assay gave 0.98 (3 of 3 replicates; controls 1 of 9).
For R34A+S62Y+L100I, the assay gave 0.50 (3 of 3 replicates; controls 7 of 9).
For L30I+S38I+V39G, the assay gave nd (0 of 3 replicates; controls 3 of 9).
For W56F+R99W, the assay gave 3.20 (3 of 3 replicates; controls 0 of 9).
For K24V+L30P+Y97L, the assay gave nd (0 of 3 replicates; controls 0 of 9).
For E32G+V39R+A57H, the assay gave nd (0 of 3 replicates; controls 0 of 9).
For S25G+E32M+Q95R, the assay gave 3.11 (3 of 3 replicates; controls 4 of 9).
For K24E+S25M+R99K, the assay gave 3.62 (1 of 3 replicates; controls 1 of 9).
For L30Y+K36M+A40N, the assay gave nd (0 of 3 replicates; controls 3 of 9).
For S25V+S28G+R60T, the assay gave 1.18 (3 of 3 replicates; controls 1 of 9).
For Y31A+K36A+N37A, the assay gave 0.57 (3 of 3 replicates; controls 1 of 9).
For K24A+V29G+A40D, the assay gave nd (0 of 3 replicates; controls 0 of 9).
For K24A+R34M+N37F, the assay gave 1.92 (3 of 3 replicates; controls 0 of 9).
For L30G+V39A+L102S, the assay gave 4.71 (1 of 3 replicates; controls 2 of 9).
For R34V+A57L+S103Y, the assay gave 3.51 (2 of 3 replicates; controls 1 of 9).
For S25D+Q27N+V39H, the assay gave nd (0 of 3 replicates; controls 0 of 9).
For A40R+R60G+H98C, the assay gave nd (0 of 3 replicates; controls 2 of 9).
For S33L+N35Q+T59G, the assay gave 4.46 (1 of 3 replicates; controls 0 of 9).
For E61L+Q96T+R99P, the assay gave 2.15 (3 of 3 replicates; controls 4 of 9).
For S26D+S58D+Q96H, the assay gave 1.23 (3 of 3 replicates; controls 1 of 9).
For Q27Y+Y31K+W56C, the assay gave 5.87 (1 of 3 replicates; controls 1 of 9).
For S26L+Q27L+P101G, the assay gave 3.89 (1 of 3 replicates; controls 1 of 9).
For S26A+Y31N+K36N, the assay gave nd (0 of 3 replicates; controls 0 of 9).
For E32H+K36S+H98R, the assay gave 1.55 (3 of 3 replicates; controls 2 of 9).
For N35A+V39W+R60E, the assay gave nd (0 of 3 replicates; controls 2 of 9).
For K24F+Y31P+S38H, the assay gave 1.94 (3 of 3 replicates; controls 3 of 9).

For reference, 5 entries of the list once more:

changes	log10 Kd (nM), mean	seen in	signal with controls
N35A+V39W+R60E	nd	0/3	2/9
S25G+E32M+Q95R	3.11	3/3	4/9
A40R+R60G+H98C	nd	0/3	2/9
V29A+T59L+Y97N	nd	0/3	0/9
R34L+Y97N+L102A	0.98	3/3	1/9

Parent in this assay: reference entry 0.65, copy in this library 1.68.